Measured values taken from PMC3958349.

Molecular target: T1, GFP-p65, Q04206
T1 chain: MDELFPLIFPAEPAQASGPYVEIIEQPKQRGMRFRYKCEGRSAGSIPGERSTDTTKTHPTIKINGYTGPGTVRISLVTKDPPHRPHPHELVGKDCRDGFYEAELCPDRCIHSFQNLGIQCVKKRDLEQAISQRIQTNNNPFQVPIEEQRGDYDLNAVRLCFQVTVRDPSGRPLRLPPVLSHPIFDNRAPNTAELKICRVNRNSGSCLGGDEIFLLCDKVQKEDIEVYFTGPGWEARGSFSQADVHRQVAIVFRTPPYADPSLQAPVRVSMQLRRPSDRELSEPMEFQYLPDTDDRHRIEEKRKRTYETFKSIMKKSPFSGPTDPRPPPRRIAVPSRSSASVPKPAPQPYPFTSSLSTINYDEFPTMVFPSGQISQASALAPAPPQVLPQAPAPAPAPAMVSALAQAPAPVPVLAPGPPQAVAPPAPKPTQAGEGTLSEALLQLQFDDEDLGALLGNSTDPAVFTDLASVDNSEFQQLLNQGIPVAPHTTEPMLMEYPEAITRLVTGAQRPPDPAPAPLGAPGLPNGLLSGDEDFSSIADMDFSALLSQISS
Experiment: number and brightness (N&B) analysis; living 3617 cells transiently expressing mCherry, mCherryGRwt, GFP and/or GFP-p65; 300 nM Cort and/or 10 ng/ml TNF-α; nuclear brightness ε in the green and red channels
Details: remark: other sources report otherwise

B1: GFP-p65, Q04206 1-551 (natural protein)
chain: T1 chain
- stoichiometry N: 2
